# CycPeptMPDB entries from one study

Values of Townsend et al. 2020, doi:10.26434/chemrxiv.13335941.v1, as listed in CycPeptMPDB.

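Lipid, pH, incubation time, direction and concentration are not recorded in the data file. Other peptides of the study may be missing here. Entries at the database's floor value (log10 P of -10) are not listed.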

PAMPA is the parallel artificial membrane permeability assay, which has no cells and reads passive diffusion. P is given in units of 10^-6 cm/s (from log10 values with two decimals); larger means faster passage.

| SMILES | PAMPA (10^-6 cm/s) |
|---|---|
| CC(C)C[C@@H]1C(=O)N2CCC[C@@H]2C(=O)N[C@H](CC(C)C)C(=O)N[C@@H](Cc2ccccc2)C(=O)N[C@@H](Cc2ccccc2)CC(=O)N[C@H](CC(C)C)C(=O)N1C | 7.6 |
| CC(C)C[C@H]1NC(=O)[C@H](C)N(C)C(=O)[C@H](Cc2ccccc2)NC(=O)CN(Cc2ccccc2)C(=O)[C@H]2CCCN2C(=O)[C@@H](CC(C)C)NC1=O | 0.95 |
| CC(C)C[C@@H]1C(=O)N[C@@H](Cc2ccccc2)C(=O)N2CCC[C@@H]2C(=O)N[C@H](C)C(=O)N(C)[C@@H](CC(C)C)C(=O)N(C)[C@H](CC(C)C)C(=O)N2CCC[C@@H]2C(=O)N1C | 2.5 |
| CC(C)C[C@@H]1NC(=O)[C@H](CC(C)C)N(C)C(=O)[C@@H](C)N(C)C(=O)[C@H]2CCCN2C(=O)[C@H](Cc2ccccc2)NC(=O)[C@@H](CC(C)C)N(C)C(=O)[C@H]2CCCN2C1=O | 3.5 |
| CC(C)C[C@@H]1NC(=O)[C@H](C)NC(=O)[C@H](Cc2ccccc2)NC(=O)CN(Cc2ccccc2)C(=O)[C@@H]2CCCN2C(=O)[C@@H](CC(C)C)N(C)C1=O | 2.8 |
| CC(C)C[C@@H]1NC(=O)[C@@H](C)NC(=O)[C@@H]2CCCN2C(=O)[C@H](Cc2ccccc2)NC(=O)CN(Cc2ccccc2)C(=O)[C@H]2CCCN2C(=O)[C@H](CC(C)C)N(C)C1=O | 0.5 |
| CC(C)C[C@@H]1NC(=O)[C@@H](C)N(C)C(=O)[C@H]2CCCN2C(=O)[C@H](Cc2ccccc2)NC(=O)CN(Cc2ccccc2)C(=O)[C@H]2CCCN2C(=O)[C@H](CC(C)C)N(C)C1=O | 3.9 |
| CC(C)C[C@H]1C(=O)N[C@@H](Cc2ccccc2)C(=O)N(C)[C@@H](C)C(=O)N(C)[C@@H](CC(C)C)C(=O)N[C@@H](Cc2ccccc2)CC(=O)N2CCC[C@@H]2C(=O)N1C | 6 |
| CC(C)C[C@@H]1C(=O)N[C@@H](Cc2ccccc2)CC(=O)N2CCC[C@@H]2C(=O)N[C@H](CC(C)C)C(=O)N[C@@H](Cc2ccccc2)C(=O)N2CCC[C@H]2C(=O)N[C@@H](C)C(=O)N1C | 0.23 |
| CC(C)C[C@@H]1C(=O)N[C@@H](Cc2ccccc2)C(=O)N[C@@H](C)C(=O)N(C)[C@@H](CC(C)C)C(=O)N[C@@H](Cc2ccccc2)CC(=O)N2CCC[C@H]2C(=O)N1C | 0.95 |
| CC(C)C[C@@H]1NC(=O)[C@@H](C)N(C)C(=O)[C@@H]2CCCN2C(=O)[C@H](Cc2ccccc2)NC(=O)[C@H](CC(C)C)N(C)C(=O)[C@H]2CCCN2C(=O)[C@@H](CC(C)C)NC1=O | 6.8 |
| CC(C)C[C@@H]1NC(=O)[C@H]2CCCN2C(=O)[C@@H](CC(C)C)N(C)C(=O)[C@@H](CC(C)C)NC(=O)C[C@H](Cc2ccccc2)NC(=O)[C@H]2CCCN2C(=O)[C@H](Cc2ccccc2)NC1=O | 1.8 |
| CC(C)C[C@H]1NC(=O)[C@@H]2CCCN2C(=O)CN(Cc2ccccc2)C(=O)[C@H](CC(C)C)N(C)C(=O)[C@@H](C)NC(=O)[C@H]2CCCN2C(=O)[C@H](Cc2ccccc2)NC1=O | 5.5 |
| CC(C)C[C@H]1NC(=O)[C@H]2CCCN2C(=O)[C@@H](CC(C)C)NC(=O)[C@@H](CC(C)C)NC(=O)[C@@H](C)NC(=O)[C@H](Cc2ccccc2)NC1=O | 0.37 |
| CC(C)C[C@@H]1NC(=O)[C@@H](CC(C)C)NC(=O)C[C@H](Cc2ccccc2)NC(=O)[C@H](Cc2ccccc2)NC(=O)[C@H](CC(C)C)N(C)C(=O)[C@@H]2CCCN2C1=O | 2 |
| CC(C)C[C@@H]1NC(=O)[C@@H]2CCCN2C(=O)CN(Cc2ccccc2)C(=O)[C@@H](CC(C)C)NC(=O)[C@H](C)NC(=O)[C@@H]2CCCN2C(=O)[C@H](Cc2ccccc2)NC1=O | 0.52 |
| CC(C)C[C@H]1NC(=O)[C@H]2CCCN2C(=O)C[C@H](Cc2ccccc2)NC(=O)[C@H](CC(C)C)N(C)C(=O)[C@H](C)N(C)C(=O)[C@H]2CCCN2C(=O)[C@H](Cc2ccccc2)NC1=O | 0.69 |
| CC(C)C[C@H]1NC(=O)[C@H]2CCCN2C(=O)[C@@H](CC(C)C)NC(=O)[C@H](CC(C)C)N(C)C(=O)[C@@H](C)N(C)C(=O)[C@H](Cc2ccccc2)NC1=O | 6.6 |
| CC(C)C[C@H]1NC(=O)[C@H](C)NC(=O)[C@H](Cc2ccccc2)NC(=O)CN(Cc2ccccc2)C(=O)[C@H]2CCCN2C(=O)[C@@H](CC(C)C)NC1=O | 0.21 |
| CC(C)C[C@@H]1C(=O)N(Cc2ccccc2)CC(=O)N2CCC[C@@H]2C(=O)N(C)[C@H](CC(C)C)C(=O)N[C@@H](Cc2ccccc2)C(=O)N2CCC[C@@H]2C(=O)N[C@@H](Cc2ccccc2)CC(=O)N1C | 1.9 |

The 3 lowest values of PAMPA among the entries above:

| SMILES | PAMPA (10^-6 cm/s) |
|---|---|
| CC(C)C[C@H]1NC(=O)[C@H](C)NC(=O)[C@H](Cc2ccccc2)NC(=O)CN(Cc2ccccc2)C(=O)[C@H]2CCCN2C(=O)[C@@H](CC(C)C)NC1=O | 0.21 |
| CC(C)C[C@@H]1C(=O)N[C@@H](Cc2ccccc2)CC(=O)N2CCC[C@@H]2C(=O)N[C@H](CC(C)C)C(=O)N[C@@H](Cc2ccccc2)C(=O)N2CCC[C@H]2C(=O)N[C@@H](C)C(=O)N1C | 0.23 |
| CC(C)C[C@H]1NC(=O)[C@H]2CCCN2C(=O)[C@@H](CC(C)C)NC(=O)[C@@H](CC(C)C)NC(=O)[C@@H](C)NC(=O)[C@H](Cc2ccccc2)NC1=O | 0.37 |